How the values were obtained:
[1] = tested on: Primary Human endothelial cells (HUVEC); assay: Endothelial cell migration assay; type: cell-based; conditions: 10 micrograms per ml, 22 hours
HCMV strain AD169 = assay: HCMV plaque formation assay in MRC-5 cells; conditions: 10 micrograms per ml, 7-10 days
spleen cells = assay: Th1/Th2 cytokine profiling assay (Ovalbumin-restimulated spleen cells, CBA kit); type: cell-based, Balb/c mice; conditions: 10 micrograms per ml; Ovalbumin restimulation; 72 hours
Protocol: The Balb/c mice (originated in 1923, it is a popular strain and is used in many different research disciplines. […] On day 50, spleens of the mice were harvested (3 weeks after last boost with Ovalbumin). […] Thereafter, additional Ovalbumin was added to the cells at 10 micrograms/ml for in vitro restimulation of the cells. 72 hours later, cell supernatants were harvested and assayed using the Becton Dickinson Mouse Th1/Th2 Cytokine CBA Kit. This kit can be used to measure Interleukin-2 (IL-2), Interleukin-4 (IL-4), Interleukin-5 (IL-5), Interferon-γ (IFN-γ), and Tumor Necrosis Factor-α (TNF-α) protein levels in a single sample. The kit performance has been optimized for analysis of physiologically relevant concentrations ([…] levels) of specific cytokine proteins in tissue culture supernatants and serum samples.

[2] = tested on: hepatitis B virus (HBV) ayw strain; assay: HBV assay in HepG2-2.2.15 cells (secreted HBV DNA, TaqMan PCR); type: cell-based; conditions: 10 micrograms per ml, six days
HUVEC = assay: Endothelial tube formation assay; type: cell-based, human; conditions: 10 micrograms per ml, 20 hours

Substance: Ala-Cys-Asp-Thr-Ala-Thr-Cys-Val-Thr-His-Arg-Leu-Ala-Gly-Leu-Leu-Ser-Arg-Ser-Gly-Gly-Val-Val-Lys-Asn-Asn-Phe-Val-Pro-Thr-Asn-Val-Gly-Ser-Lys-Ala-Phe-NH2 (ACDTATCVTHRLAGLLSRSGGVVKNNFVPTNVGSKAF; printed: Ala-Cys-Asp-Thr-Ala-Thr-Cys-Val-Thr-His-Arg-Leu-Ala-Gly-Leu-Leu-Ser-Arg-Ser-Gly-Gly-Val-Val-Lys-Asn-Asn-Phe-Val-Pro-Thr-Asn-Val-Gly-Ser-Lys-Ala-Phe-) [peptide 2, alpha Calcitonin Gene-Related Peptide, commercially available known peptide]
- inhibition of the migration of human endothelial cells [1]: 11%
- inhibition of HCMV plaque formation as compared to the virus control experiment (HCMV strain AD169): did not show any inhibition
- IFNγ spleen cells; TH1 response (% of control) (spleen cells): 16.2 % of control
- IL-2 spleen cells (% of control) (spleen cells): 56.5 % of control
- IL-4 spleen cells; TH2 response (% of control) (spleen cells): 76.6 % of control
- IL-5 spleen cells; TH2 response (% of control) (spleen cells): 34.5 % of control
- TNF-a spleen cells; TH1 response (% of control) (spleen cells): 71.8 % of control
- inhibition of HBV replication as compared to the virus control infection [2]: 11.9%
- inhibition of the tube formation of human endothelial cells (HUVEC): 4%

From patent US20100204117A1, “CGRP AS A THERAPEUTIC AGENT” (priority 2008, published 2010)
